Activity calls are given as the source filed them.
Experiments:
[1] = target: 5-hydroxytryptamine receptor 1A (Homo sapiens) (UniProt P08908); assay: Binding affinity to 5-HT1A (unknown origin) at 10 uM
[2] = target: 5-hydroxytryptamine receptor 1D (Homo sapiens) (UniProt P28221); assay: Binding affinity to 5-HT1D (unknown origin) at 10 uM
[3] = target: 5-hydroxytryptamine receptor 2A (Homo sapiens) (UniProt P28223); assay: Binding affinity to 5-HT2A (unknown origin) at 10 uM
[4] = target: 5-hydroxytryptamine receptor 2B (Homo sapiens) (UniProt P41595); assay: Binding affinity to 5-HT2B (unknown origin) at 10 uM
[5] = target: 5-hydroxytryptamine receptor 2C (Homo sapiens) (UniProt P28335); assay: Binding affinity to 5-HT2C (unknown origin) at 10 uM
[6] = target: 5-hydroxytryptamine receptor 5A (Homo sapiens) (UniProt P47898); assay: Binding affinity to 5-HT5A (unknown origin) at 10 uM
[7] = target: T1, Alpha-1A adrenergic receptor (Homo sapiens) (UniProt P35348); assay: Binding affinity to alpha-1A adrenergic receptor (unknown origin) at 10 uM
T1 sequence (whole entry): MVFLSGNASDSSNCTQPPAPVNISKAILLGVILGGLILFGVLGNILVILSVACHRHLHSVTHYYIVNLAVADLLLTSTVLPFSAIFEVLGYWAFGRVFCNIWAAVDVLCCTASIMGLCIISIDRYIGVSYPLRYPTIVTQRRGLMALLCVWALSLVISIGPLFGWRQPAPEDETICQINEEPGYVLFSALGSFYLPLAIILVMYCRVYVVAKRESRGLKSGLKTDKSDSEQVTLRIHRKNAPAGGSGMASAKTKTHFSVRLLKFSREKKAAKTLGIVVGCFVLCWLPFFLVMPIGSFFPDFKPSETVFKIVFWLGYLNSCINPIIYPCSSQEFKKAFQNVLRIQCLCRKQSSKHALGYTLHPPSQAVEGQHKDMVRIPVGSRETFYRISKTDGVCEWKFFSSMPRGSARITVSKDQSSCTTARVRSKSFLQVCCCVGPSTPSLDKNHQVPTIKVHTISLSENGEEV

Amino acid sequences for entries named in this document (tags omitted). A change or cut given only in a name is not applied to a line headed by its entry.
UniProt P08908, whole entry: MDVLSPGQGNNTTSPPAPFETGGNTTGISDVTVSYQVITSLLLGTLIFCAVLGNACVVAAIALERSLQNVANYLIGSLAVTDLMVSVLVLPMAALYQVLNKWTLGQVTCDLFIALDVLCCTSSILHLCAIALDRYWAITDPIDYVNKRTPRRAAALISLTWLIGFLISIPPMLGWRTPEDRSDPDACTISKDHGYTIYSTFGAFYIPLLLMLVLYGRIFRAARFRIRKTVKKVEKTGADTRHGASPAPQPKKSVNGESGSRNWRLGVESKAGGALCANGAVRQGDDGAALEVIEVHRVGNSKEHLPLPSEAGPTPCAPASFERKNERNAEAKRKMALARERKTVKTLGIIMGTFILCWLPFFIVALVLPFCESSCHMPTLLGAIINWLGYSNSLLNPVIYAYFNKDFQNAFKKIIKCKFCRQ
UniProt P28221: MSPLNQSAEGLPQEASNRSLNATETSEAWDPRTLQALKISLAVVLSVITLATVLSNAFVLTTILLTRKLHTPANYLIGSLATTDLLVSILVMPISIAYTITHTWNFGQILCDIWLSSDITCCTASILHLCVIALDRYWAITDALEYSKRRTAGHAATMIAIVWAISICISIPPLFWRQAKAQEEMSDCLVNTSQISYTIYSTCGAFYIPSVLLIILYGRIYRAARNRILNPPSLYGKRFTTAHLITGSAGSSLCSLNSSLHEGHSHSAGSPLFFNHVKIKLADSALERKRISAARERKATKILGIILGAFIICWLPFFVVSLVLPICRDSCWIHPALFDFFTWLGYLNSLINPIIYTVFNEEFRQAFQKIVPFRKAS
UniProt P41595, whole entry: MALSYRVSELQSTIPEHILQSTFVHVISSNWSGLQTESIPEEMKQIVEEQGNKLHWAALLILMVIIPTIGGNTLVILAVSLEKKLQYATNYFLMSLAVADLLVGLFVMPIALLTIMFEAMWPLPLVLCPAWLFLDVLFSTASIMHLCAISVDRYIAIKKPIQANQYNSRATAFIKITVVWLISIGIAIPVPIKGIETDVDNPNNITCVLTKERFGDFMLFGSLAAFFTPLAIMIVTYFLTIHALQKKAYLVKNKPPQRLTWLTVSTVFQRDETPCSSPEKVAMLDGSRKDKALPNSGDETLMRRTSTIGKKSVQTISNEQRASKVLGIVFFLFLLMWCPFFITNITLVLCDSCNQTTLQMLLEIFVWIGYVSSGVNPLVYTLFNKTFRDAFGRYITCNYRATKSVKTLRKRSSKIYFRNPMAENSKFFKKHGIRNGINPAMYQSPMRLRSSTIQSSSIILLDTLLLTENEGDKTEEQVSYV
UniProt P28335: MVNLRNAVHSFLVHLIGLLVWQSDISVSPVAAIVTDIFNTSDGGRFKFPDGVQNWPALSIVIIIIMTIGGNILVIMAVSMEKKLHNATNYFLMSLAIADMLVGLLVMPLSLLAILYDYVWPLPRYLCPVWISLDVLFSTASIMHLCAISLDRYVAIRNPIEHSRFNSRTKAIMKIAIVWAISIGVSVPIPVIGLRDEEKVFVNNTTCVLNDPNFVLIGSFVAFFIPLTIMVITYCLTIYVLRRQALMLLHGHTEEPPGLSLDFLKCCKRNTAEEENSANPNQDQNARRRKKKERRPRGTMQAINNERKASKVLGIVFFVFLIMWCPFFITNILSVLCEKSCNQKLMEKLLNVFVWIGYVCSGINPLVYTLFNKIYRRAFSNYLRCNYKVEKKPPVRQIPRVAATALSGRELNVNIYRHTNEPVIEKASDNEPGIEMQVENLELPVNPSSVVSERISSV
UniProt P47898, whole entry: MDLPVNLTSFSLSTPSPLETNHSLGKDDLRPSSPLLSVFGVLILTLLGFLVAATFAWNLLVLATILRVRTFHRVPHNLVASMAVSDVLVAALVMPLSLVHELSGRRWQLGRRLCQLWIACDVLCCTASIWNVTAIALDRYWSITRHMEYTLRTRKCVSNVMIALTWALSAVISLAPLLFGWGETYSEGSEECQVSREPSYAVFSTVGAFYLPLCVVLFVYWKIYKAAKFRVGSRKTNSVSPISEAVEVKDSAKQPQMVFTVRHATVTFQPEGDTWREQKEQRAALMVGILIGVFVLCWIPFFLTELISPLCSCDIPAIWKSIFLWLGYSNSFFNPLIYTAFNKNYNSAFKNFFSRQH
UniProt P35368, whole entry: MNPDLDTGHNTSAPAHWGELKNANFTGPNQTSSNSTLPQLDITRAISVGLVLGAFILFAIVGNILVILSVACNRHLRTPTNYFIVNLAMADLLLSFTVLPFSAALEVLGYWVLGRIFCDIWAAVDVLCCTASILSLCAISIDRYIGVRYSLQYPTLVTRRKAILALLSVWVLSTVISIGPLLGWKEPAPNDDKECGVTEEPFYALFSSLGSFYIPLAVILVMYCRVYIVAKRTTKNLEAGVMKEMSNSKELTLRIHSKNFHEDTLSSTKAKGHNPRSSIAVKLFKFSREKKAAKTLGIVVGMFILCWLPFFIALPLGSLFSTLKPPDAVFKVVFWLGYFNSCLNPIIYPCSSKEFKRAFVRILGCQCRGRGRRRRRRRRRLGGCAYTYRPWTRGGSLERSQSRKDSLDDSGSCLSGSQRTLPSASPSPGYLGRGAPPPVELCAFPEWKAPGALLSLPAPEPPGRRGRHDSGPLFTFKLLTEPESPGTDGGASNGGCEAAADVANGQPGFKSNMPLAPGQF
UniProt P21728, whole entry: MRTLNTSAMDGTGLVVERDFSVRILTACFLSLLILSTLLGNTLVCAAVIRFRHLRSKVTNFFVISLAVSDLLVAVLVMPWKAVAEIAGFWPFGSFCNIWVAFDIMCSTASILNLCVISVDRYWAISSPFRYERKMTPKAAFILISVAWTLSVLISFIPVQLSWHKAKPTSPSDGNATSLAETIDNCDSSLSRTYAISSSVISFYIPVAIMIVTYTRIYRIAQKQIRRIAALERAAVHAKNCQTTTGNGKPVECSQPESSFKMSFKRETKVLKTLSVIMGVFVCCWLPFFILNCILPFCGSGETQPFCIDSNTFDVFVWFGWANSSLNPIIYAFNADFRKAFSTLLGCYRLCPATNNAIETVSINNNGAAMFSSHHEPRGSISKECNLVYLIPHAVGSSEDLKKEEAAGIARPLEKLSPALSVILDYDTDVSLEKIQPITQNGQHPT
UniProt P14416, whole entry: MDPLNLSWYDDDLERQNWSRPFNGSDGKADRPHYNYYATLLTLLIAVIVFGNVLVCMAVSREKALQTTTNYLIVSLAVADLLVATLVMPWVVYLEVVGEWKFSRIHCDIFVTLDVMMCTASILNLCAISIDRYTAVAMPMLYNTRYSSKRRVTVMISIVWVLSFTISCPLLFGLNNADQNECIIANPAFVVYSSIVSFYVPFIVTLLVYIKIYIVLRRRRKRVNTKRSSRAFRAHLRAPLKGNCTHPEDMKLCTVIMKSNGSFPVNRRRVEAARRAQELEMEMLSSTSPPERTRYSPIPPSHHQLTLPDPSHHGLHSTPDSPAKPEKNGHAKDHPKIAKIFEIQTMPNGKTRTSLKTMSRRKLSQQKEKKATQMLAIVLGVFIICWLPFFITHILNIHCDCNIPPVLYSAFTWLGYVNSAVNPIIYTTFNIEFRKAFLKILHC
UniProt P21917, whole entry: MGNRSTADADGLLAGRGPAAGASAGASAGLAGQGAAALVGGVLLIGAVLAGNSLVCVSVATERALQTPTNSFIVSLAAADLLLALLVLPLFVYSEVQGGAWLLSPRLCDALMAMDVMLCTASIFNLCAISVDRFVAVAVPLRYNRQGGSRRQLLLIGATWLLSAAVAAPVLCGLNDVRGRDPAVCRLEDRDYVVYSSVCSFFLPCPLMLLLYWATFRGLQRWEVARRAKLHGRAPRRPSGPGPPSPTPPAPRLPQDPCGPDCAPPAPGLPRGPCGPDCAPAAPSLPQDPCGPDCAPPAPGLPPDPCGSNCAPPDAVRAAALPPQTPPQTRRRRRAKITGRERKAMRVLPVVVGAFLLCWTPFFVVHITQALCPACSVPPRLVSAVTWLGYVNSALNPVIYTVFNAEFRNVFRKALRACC
UniProt P41143, whole entry: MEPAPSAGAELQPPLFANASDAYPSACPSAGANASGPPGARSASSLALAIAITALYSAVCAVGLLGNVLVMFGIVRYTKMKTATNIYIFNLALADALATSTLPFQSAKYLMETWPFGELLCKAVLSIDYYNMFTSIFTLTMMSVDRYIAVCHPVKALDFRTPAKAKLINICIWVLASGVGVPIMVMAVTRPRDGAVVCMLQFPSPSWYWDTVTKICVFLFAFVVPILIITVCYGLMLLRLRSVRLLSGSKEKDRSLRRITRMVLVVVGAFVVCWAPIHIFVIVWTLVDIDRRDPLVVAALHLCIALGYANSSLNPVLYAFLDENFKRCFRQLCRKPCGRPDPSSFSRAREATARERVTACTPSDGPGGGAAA
UniProt P41145: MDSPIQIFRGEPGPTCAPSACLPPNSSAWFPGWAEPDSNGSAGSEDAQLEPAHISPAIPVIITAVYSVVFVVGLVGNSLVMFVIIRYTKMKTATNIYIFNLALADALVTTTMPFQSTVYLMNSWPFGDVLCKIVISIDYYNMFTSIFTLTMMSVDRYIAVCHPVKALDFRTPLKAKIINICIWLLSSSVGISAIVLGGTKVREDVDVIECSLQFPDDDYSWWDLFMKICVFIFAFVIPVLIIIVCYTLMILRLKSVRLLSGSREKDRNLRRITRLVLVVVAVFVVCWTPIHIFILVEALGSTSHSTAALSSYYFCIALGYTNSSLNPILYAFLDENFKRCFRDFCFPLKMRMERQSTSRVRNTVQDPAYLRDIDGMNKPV
UniProt P20309, whole entry, looked up: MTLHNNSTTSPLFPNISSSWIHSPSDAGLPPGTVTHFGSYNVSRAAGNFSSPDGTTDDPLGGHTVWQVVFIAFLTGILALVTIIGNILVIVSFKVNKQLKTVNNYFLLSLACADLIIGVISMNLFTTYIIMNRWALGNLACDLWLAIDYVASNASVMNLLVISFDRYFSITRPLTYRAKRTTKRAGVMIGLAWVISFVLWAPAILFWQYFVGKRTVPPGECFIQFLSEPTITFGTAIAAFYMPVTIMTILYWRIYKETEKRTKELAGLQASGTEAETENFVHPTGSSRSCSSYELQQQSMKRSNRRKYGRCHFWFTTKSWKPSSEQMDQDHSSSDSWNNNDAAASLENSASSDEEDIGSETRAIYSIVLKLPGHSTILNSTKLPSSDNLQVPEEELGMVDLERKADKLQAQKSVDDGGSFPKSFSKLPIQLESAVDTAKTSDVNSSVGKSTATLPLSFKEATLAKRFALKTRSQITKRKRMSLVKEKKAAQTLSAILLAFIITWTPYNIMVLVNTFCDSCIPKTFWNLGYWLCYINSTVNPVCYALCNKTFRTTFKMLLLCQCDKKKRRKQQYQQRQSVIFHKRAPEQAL
UniProt P35372, whole entry: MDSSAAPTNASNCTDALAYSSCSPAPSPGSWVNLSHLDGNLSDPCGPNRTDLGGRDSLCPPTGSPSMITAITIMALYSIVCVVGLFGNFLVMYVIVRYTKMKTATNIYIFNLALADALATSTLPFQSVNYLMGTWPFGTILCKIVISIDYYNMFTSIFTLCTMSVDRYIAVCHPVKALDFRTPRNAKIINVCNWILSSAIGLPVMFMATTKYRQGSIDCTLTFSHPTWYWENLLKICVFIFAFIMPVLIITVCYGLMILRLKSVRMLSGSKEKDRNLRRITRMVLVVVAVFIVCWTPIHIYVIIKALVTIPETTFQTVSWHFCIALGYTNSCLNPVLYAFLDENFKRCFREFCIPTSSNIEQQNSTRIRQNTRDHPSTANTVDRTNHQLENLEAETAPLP
UniProt Q5BJF2, whole entry: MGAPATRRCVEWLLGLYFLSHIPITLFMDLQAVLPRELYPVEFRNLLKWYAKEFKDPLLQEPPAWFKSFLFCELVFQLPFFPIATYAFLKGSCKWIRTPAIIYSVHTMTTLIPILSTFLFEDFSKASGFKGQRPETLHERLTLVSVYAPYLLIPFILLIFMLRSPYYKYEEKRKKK
UniProt Q01959, whole entry: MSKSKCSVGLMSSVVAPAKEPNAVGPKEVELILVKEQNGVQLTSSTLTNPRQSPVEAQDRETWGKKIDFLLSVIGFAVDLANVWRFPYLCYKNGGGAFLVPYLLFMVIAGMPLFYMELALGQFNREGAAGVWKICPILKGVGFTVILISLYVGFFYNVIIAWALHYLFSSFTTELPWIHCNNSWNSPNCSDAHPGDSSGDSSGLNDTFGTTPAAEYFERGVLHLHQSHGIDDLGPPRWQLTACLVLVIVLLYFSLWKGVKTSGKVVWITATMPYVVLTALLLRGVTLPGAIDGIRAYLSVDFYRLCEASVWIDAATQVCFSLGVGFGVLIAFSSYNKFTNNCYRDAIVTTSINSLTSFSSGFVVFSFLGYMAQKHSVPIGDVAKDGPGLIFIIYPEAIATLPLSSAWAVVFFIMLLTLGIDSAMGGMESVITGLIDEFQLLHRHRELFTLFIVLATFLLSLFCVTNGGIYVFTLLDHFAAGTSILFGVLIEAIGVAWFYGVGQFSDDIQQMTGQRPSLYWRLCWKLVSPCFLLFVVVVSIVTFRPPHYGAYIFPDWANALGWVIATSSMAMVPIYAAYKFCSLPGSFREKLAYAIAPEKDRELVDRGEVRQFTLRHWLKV

[8] = target: Alpha-1B adrenergic receptor (Homo sapiens) (UniProt P35368); assay: Binding affinity to alpha-1B adrenergic receptor (unknown origin) at 10 uM
[9] = target: D(1A) dopamine receptor (Homo sapiens) (UniProt P21728); assay: Binding affinity to D1 receptor (unknown origin) at 10 uM
[10] = target: D(2) dopamine receptor (Homo sapiens) (UniProt P14416); assay: Binding affinity to D2 receptor (unknown origin) at 10 uM
[11] = target: D(4) dopamine receptor (Homo sapiens) (UniProt P21917); assay: Binding affinity to D4 receptor (unknown origin) at 10 uM
[12] = target: Delta-type opioid receptor (Homo sapiens) (UniProt P41143); assay: Binding affinity to DOR (unknown origin) at 10 uM
[13] = target: Kappa-type opioid receptor (Homo sapiens) (UniProt P41145); assay: Binding affinity to KOR (unknown origin) at 10 uM
[14] = target: Muscarinic acetylcholine receptor M3 (Homo sapiens) (UniProt P20309); assay: Binding affinity to M3 receptor (unknown origin) at 10 uM
[15] = target: Mu-type opioid receptor (Homo sapiens) (UniProt P35372); assay: Binding affinity to MOR (unknown origin) at 10 uM
[16] = target: Sigma non-opioid intracellular receptor 1 (Homo sapiens) (UniProt Q99720); assay: Binding affinity to Sigma 1 receptor (unknown origin) at 10 uM
[17] = target: Sigma intracellular receptor 2 (Homo sapiens) (UniProt Q5BJF2); assay: Binding affinity to Sigma 2 receptor (unknown origin) at 10 uM
[18] = target: Sodium-dependent dopamine transporter (Homo sapiens) (UniProt Q01959); assay: Binding affinity to DAT (unknown origin) at 10 uM

Measured: Activity

COc1cc(Cn2ccc3cc(C(=O)NCC45C[C@H]6C[C@@H](C4)C[C@@H](C5)C6)ccc32)ccc1C(=O)NO
inactive: all assays above

Reference: ChEMBL document CHEMBL5375948, “Development and Pharmacochemical Characterization Discover a Novel Brain-Permeable HDAC11-Selective Inhibitor with Therapeutic Potential by Regulating Neuroinflammation in Mice” (J Med Chem, 2023)
